Measurements reported in US11174301B2 (Takeda Pharmaceutical Company Limited, priority 2017, dated 2021).

Amino acid sequences for entries named in this document (tags omitted). Residues count along the entry.
UniProt P43220, 24-463: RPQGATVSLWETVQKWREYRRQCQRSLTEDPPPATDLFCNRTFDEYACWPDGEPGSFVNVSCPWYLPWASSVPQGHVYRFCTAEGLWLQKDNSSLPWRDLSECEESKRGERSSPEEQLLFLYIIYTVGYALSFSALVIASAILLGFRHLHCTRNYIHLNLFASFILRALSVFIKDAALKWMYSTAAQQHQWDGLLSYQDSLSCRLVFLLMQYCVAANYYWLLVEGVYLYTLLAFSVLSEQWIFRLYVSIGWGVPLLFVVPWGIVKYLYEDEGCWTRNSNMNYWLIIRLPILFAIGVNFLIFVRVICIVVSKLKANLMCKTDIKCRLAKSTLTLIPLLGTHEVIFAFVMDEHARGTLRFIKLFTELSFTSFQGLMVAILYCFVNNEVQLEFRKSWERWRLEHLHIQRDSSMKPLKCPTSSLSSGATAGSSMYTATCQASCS

Experiments:
beagles = experiment: PYY-1119-induced vomiting in dogs; format: in vivo; conditions: PYY-1119 10 μg/kg [about 5 nmol/kg] s.c. alone, 2-hour observation, FIG. 7A
human GLP-1R = molecular target: T1, human GLP-1R (Homo sapiens, UniProt P43220); experiment: Agonist activity on human GLP-1R, CRE-luciferase reporter assay with increase in intracellular cAMP as indicator; format: cell-based; conditions: hGLP-1R/CRE-luc/CHO-K1 cells, 4 hours incubation, 10 nM GLP-1 = 100%
T1 construct: expressed in transfected cells; host or cells: CHO-K1 (hGLP-1R/CRE-luc/CHO-K1 line)
Text: (3) Construction of Reporter Plasmid
(5) Construction of Expression Plasmid of Human GLP-1R Gene
(6) Transfer of Human GLP-1R Gene and Reporter Plasmid to CHO-K1 Cell and Obtaining of Expressing Cell
The Cre-luc (Zeo) obtained in (3) and the plasmid hGLP-1/pIRESneo3 obtained in (5) were transferred to the CHO-K1 cell to obtain a transformant. Subsequently, the cell line inducing the luciferase expression, hGLP-1R/CRE-luc/CHO-K1 cell, was selected from the obtained transformant by adding GLP-1.
(§1) Steady-Glo (Promega) was added in amounts of 30 μL and shaken under light shielding. 20 Minutes later, luciferase activity was measured using a plate reader Envision (PerkinElmer).

[1] = Plasma levels in ferrets of the vomiting tests; format: in vivo; conditions: for Plasma level 4 hours after administration: 30 nmol/kg s.c.; for Plasma level 120 hours after administration: 144 μg/kg (30 nmol/kg) s.c.; for Plasma level at the test completion: cisplatin test
Method: The ferret test was carried out by Nissei Bilis Co., Ltd. (Shiga prefecture, Japan). Cisplatin (10 mg/kg i.p.) was administered to male ferrets (10-week-old, n=6) to induce acute vomiting. […] The frequency of emesis (feeling queasy, vomiting) was monitored over a period of 8 hours after cisplatin administration.
[…]. At the time of each of 4 hours, or 120 hours after administration, 0.6 mg/kg of morphine was subcutaneously administered. Up to 60 minutes after morphine administration, the condition of the ferrets was monitored to record the frequencies and time points of abdominal contraction motions, vomiting behaviors, licking with the tongue, and fidgety behavior occurring.

human GIPR [2] = molecular target: T2, human GIPR (Homo sapiens, UniProt P48546); experiment: Agonist activity on human GIPR, CRE-luciferase reporter assay with increase in intracellular cAMP as indicator; format: cell-based; conditions: hGIPR/CRE-LUC/CHO-K1 cells, 4 hours incubation, 10 nM GIP = 100%
T2 construct: expressed in transfected cells; host or cells: CHO-K1 (CRE-LUC/CHO-K1 reporter cell; hGIPR/CRE-LUC/CHO-K1 line)
T2 sequence (P48546 22-466): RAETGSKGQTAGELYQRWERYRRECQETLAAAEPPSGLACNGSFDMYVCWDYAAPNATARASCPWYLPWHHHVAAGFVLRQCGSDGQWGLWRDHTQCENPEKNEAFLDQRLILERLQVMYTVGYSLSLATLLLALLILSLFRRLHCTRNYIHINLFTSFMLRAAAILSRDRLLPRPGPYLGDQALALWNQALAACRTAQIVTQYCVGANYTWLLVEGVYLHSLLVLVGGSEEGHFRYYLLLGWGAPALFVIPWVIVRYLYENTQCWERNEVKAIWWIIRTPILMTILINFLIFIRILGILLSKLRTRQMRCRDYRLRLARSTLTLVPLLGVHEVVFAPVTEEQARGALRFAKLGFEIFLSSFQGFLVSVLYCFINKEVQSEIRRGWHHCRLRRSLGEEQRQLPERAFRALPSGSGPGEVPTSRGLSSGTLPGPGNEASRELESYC
Method: (2) Construction of Reporter Plasmid Expressing Cell
(4) Transfer of Human GIPR Gene to CRE-LUC/CHO-K1 Cell and Obtaining of Expressing Cell
Subsequently, the cell line inducing the luciferase expression, hGIPR/CRE-LUC/CHO-K1 cell, was selected from the obtained transformant by adding GIP.
as §1

human GIPR [3] = molecular target: T2, human GIPR; experiment: Binding activity to human GIPR using [125I]-GIP (GIPR_VLP); conditions: [125I]GIP 100 pM, room temperature 2 hours
Method: The GF/C glass fiber filter 96-well plate in which VLP was trapped was dried at 42° C. overnight. Thereafter, MicroScint-O (PerkinElmer 6013611) was added to the GF/C glass fiber filter 96-well plate sealed using a backseal and the plate was sealed using a topseal.

## 4-imidazolecarbonyl-Ser-D-Hyp-Iva-Pya(4)-Cha-Leu(Me)-Asn-Lys-Aib-Thr-Arg-Gln-Arg-Cha-NH2 [PYY-1119, reference compound]
beagles
  Frequency of vomiting, PYY-1119 alone: 6 to 28 times

## H-MeTyr-Aib-Glu-Gly-Thr-Iva-Ile-Ser-Asp-Tyr-Ser-Ile-Aib-Leu-Asp-Arg-Lys(Oda-GGGGG-)-Ala-Gln-Aib-Asn-Phe-Val-Asn-Trp-Iva-Leu-Ala-Gln-Arg-Pro-Ser-Ser-Gly-Ala-Pro-Pro-Pro-Ser-NH2 [Compound 349]
Human GLP-1R
  EC50: > 1000 nM
[1]
  Plasma level 4 hours after administration: 143.4 nM
  Plasma level 120 hours after administration: 43.3 nM
Human GIPR [2]
  EC50: 0.019 nM
Human GIPR [3]
  IC50: 4.2 nM

## H-MeTyr-Aib-Glu-Gly-Thr-Iva-Ile-Ser-Asp-Tyr-Ser-Ile-Aib-Lys(Eda-GGGGG-)-Asp-Arg-Aib-Ala-Gln-Aib-Asn-Phe-Val-Asn-Trp-Iva-Leu-Ala-Gln-Arg-Pro-Ser-Ser-Gly-Ala-Pro-Pro-Pro-Ser-NH2 [Compound 341]
Human GLP-1R
  EC50: > 1000 nM
[1]
  Plasma level 4 hours after administration: 154.0 nM
  Plasma level 120 hours after administration: 82.3 nM
Human GIPR [2]
  EC50: 0.048 nM
Human GIPR [3]
  IC50: 16 nM

## H-Tyr-Aib-Glu-Gly-Thr-Val-Val-Ser-Leu-Tyr-Ser-Ile-Aib-Leu-Asp-Lys-Gln-Ala-Gln-Aib-Glu-Phe-Val-Lys-Trp-Leu-Leu-Lys-Gly-Gly-Pro-Ser-Ser-Gly-Ala-Pro-Pro-Pro-Ser-Lys-NH2 [Compound 6]
Human GLP-1R
  EC50: > 1000 nM
[1]; 16.7 nmol/kg/hour subcutaneous
  Plasma level at the test completion: 133.4 nM
[1]; 167 nmol/kg/hour subcutaneous
  Plasma level at the test completion: 392.7 nM
Human GIPR [2]
  EC50: 0.0068 nM
Human GIPR [3]
  IC50: 2.5 nM
